# Assay results from patent US10472352B2, “Rac inhibitors” (Geneyus LLC, priority 2017, dated 2019).
# Tested on: androgen receptor response gene (PSA) in LNCaP prostate cancer cells
# Assay: Inhibition of Androgen Receptor Target Gene Transcription (PSA qPCR)
# Type: cell-based
# Details: 10 nM DHT, 4 hours, 10 uM bicalutamide, 10 uM enzalutamide, 12.5 or 25 uM 0032661
# Method: After 4 hours, RNA was harvested and converted into cDNA. qPCR analysis for PSA was performed on all samples and normalized to expression of GAPDH. The data, shown in FIG. 11, is expressed as fold change relative to PSA expression of the cFBS sample.
smiles,measurement,value
"CNC(=O)c1ccc(N2C(=S)N(c3ccc(C#N)c(C(F)(F)F)c3)C(=O)C2(C)C)cc1F [enzalutamide, reference compound]",androgen receptor target gene transcription (PSA),inhibit the androgen receptor target gene transcription
